Molecular target: full-length USP7 (Homo sapiens, UniProt Q93009)
Assay: Ub-AMC enzymatic assay, full-length USP7, 6 h pre-incubation

Chains of the proteins cited; added tags and fusions are not shown.
UniProt Q93009, whole entry: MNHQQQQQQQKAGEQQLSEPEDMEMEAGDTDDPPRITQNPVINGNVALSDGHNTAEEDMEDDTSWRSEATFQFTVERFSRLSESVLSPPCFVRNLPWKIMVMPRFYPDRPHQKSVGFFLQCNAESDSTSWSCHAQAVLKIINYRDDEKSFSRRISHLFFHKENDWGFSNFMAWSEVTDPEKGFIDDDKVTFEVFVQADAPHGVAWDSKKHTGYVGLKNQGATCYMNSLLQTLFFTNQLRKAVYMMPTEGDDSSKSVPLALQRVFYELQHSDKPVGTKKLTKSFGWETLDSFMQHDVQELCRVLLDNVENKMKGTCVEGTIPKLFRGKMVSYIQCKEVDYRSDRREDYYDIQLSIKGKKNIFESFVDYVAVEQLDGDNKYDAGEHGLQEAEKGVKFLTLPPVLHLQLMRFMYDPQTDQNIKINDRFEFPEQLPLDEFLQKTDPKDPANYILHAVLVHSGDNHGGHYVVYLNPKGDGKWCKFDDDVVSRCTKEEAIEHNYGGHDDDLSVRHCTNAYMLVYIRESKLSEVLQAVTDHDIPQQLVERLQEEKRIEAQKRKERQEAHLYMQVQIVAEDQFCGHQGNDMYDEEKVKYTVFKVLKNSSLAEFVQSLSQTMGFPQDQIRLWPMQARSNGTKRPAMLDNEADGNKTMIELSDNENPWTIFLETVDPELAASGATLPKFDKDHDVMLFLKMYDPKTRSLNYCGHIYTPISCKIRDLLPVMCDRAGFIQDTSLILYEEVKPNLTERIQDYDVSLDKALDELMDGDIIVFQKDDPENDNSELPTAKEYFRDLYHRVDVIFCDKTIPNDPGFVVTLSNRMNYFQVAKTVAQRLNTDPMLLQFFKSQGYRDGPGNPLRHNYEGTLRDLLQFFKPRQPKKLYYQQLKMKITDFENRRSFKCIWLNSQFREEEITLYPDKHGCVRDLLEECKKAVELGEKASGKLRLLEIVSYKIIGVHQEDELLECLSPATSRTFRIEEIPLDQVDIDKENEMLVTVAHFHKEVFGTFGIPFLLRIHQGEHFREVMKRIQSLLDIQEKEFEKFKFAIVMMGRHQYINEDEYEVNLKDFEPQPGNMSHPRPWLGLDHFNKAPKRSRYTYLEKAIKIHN

For `C[C@@H]1NC(=O)N[C@@H]1CCCCCC(=O)NCCOCCOCCOCCC(=O)N1CCN(CC(=O)Nc2ccc3c(=O)n(CC4(O)CCN(C(=O)[C@@H](CCCNC(=O)c5ccc6c(Cl)c7c(nc6c5)CCCC7)Cc5ccccc5)CC4)cnc3c2)CC1`, the USP7 inhibitory activity was “retained USP7 inhibitory activity”.

From paper PMC7093416, “Selective USP7 inhibition elicits cancer cell killing through a p53-dependent mechanism” (Scientific Reports, 2020)
